pIC50: −log10 of the molar value.
Tests used:
[1] = molecular target: JNK1 (Homo sapiens, UniProt P45983); experiment: JNK1 SPA assay (phosphorylation of GST-c-Jun); conditions: read-out: JNK1 IC50, 2 μM ATP, GST-c-Jun substrate
Experimental: (§1) JNK1, JNK2, JNK3—SPA Assay
(§2) JNK1, JNK2, JNK3—SPA Assay • 1. Compound is dissolved in DMSO to a convenient concentration and this is diluted in 10% DMSO to a five times concentrate of the desired starting concentration (frequently 1:100). • 2. 10 μl of 500 mM EDTA is added to alternative wells of the Opti-plate row, which will receive kinase reaction plus DMSO. This creates the negative control. • 3. For the JNK2 and JNK3 assay, compounds are prepared in six 2-fold dilutions with water and each concentration is tested in duplicate. For the JNK1 assay compounds are prepared in four 5-fold dilutions with water which are tested in triplicate. Controls are treated identically. • 4. 20 μl per well of each compound concentration is transferred to an Opti-plate, in duplicate. • 5. 30 μl (JNK2/3 SPA) or 50 μl (JNK1 SPA) of substrate solution (25 mM HEPES pH 7.5, 10 mM magnesium acetate with 3.33 μM ATP (JNK2/3) or 2 μM ATP (JNK1), approximately 7.5 kBq [γ-^33P] ATP, GST-c-Jun, in water) is added to each well. • 6. 50 μl (JNK2/3 SPA) or 30 μl (JNK1 SPA) of kinase solution (JNK in 25 mM HEPES pH 7.5, 10 mM Mg Acetate) is added to each well.
(§3) • 7. The plate is incubated for 30 minutes at room temperature. • 8. 100 μl of bead/stop solution is added to each well (5 mg/ml glutathione-PVT-SPA beads, 40 mM ATP in PBS). • 9. Plates are sealed and incubated for 30 minutes at room temperature, centrifuged for 10 minutes at 2500 g and counted. • 10. The IC50 values are calculated as the concentration of the compound being tested at which the phosphorylation of c-Jun is decreased to 50% of the control value.

Sequences of proteins named here, by UniProt entry; tags and fusion partners are left off.
UniProt P45983, whole entry: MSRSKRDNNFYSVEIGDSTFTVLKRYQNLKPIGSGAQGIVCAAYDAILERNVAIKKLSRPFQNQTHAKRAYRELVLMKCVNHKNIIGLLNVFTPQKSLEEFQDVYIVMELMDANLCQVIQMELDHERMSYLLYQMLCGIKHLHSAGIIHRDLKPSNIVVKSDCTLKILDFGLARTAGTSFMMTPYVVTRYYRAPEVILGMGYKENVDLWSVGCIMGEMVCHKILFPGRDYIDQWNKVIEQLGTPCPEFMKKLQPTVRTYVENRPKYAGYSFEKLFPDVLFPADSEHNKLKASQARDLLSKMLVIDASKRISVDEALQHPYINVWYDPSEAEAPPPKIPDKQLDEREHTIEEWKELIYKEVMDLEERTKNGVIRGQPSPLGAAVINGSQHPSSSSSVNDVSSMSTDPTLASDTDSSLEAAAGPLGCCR
UniProt P45984, whole entry: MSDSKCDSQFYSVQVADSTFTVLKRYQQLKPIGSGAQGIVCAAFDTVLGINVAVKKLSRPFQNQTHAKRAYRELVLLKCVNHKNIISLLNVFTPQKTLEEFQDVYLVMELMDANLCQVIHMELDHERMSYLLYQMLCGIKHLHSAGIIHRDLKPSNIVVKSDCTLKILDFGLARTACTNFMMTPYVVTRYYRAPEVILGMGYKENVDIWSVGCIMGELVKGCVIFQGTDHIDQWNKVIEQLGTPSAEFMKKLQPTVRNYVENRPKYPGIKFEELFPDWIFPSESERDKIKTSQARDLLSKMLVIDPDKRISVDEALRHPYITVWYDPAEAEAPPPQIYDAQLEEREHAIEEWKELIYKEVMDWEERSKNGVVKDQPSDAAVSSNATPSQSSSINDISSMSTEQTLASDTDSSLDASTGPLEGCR

[2] = test system: TNFα level in plasma; experiment: LPS-induced TNFα suppression in mice (plasma TNFα, ELISA); conditions: 20 mg/kg p.o. 30 minutes before LPS 10 mg/kg i.p.; plasma 1 hour after LPS; versus vehicle-treated animals
Experimental: (§4) LPS-Induced TNFα Suppression in Mice
(§5) The studies were carried out in male C57/B16 mice. Compounds (20 mg/kg; p.o.) were administered 30 minutes before injection of lipopolysaccharide (LPS). LPS was administered intraperitoneally at a dose of 10 mg/kg. Animals were sacrificed 1 hour following LPS injection. Blood was collected into heparinized tubes for measurement of plasma TNFα levels and spleens were collected for the measurement of c-Jun phosphorylation. Plasma TNFα was measured using an ELISA kit purchased from R&D systems. Spleens were homogenised, extracted in high salt (250 mM NaCl) lysis buffer with phosphatase inhibitors and c-Jun phosphorylation was measured using HTRF. The suppressive effect of compounds was calculated as the percentage reduction of the TNFα level in plasma and P-c-Jun level in spleen as compared with the vehicle-treated animals.

[3] = test system: P-c-Jun level in spleen; experiment: LPS-induced c-Jun phosphorylation in spleen of mice (HTRF); conditions: 20 mg/kg p.o. 30 minutes before LPS 10 mg/kg i.p.; spleen 1 hour after LPS; versus vehicle-treated animals
Experimental: as §4, §5

[4] = molecular target: JNK2 (Homo sapiens, UniProt P45984); experiment: JNK2 SPA assay (phosphorylation of GST-c-Jun); conditions: read-out: JNK2 IC50, 3.33 μM ATP, GST-c-Jun substrate
Experimental: as §1, §2, §3

[5] = test system: panel of 100 kinases; experiment: Selectivity against a panel of kinases (Upstate/Millipore), expressed as Gini coefficient; conditions: calculated from remaining activity against 100 kinases; compound 1 micromolar, ATP 10 micromolar; 0 = non-selective, 1 = perfect selectivity
Experimental: Selectivity of Compounds (I) Against a Panel of Kinases
Inhibitory potency of compound (I-8) and (I-60) at a concentration of 1 micromolar and (I-69) and (I-70) at a concentration of 5 micromolar with ATP concentration of 10 micromolar was determined at Upstate/Millipore against a panel of 100 kinases representing all major families within the kinome. The results are presented in Table 3 and are expressed as percentage of remaining activity.
For comparison purposes Table 4 contains the relevant inhibitory data for reference compounds A-L containing a (hetero)aromatic ring at C(5) of the 7-azaindole system.
Selectivity Expressed as Gini Coefficient
Selectivity of compounds according to the present invention and reference compounds expressed as Gini coefficient (J. Med. Chem. 2007, 50, 5773-5779) is shown in Table 5. The individual Gini coefficients have been calculated using the data in Tables 3 and 4. Value Gini=0 corresponds to a totally non-selective compound; value Gini=1 reflects perfect selectivity (inhibition of a single target only)

Compound | pIC50 [1] | pIC50 [4] | Percentage reduction in the level of TNFα [2] | Percentage reduction in the level of P-c-Jun [3] | Selectivity expressed as Gini coefficient [5]
CN1CCC(c2nc(-c3c[nH]c4ncc(C5=CCCC5)cc34)cs2)CC1 [Compound I-1, 5-Cyclopent-1-enyl-3-[2-(1-methyl-piperidin-4-yl)-thiazol-4-yl]-1H-pyrrolo[2,3-b]pyridine] | 6.52 | 6.08 | 77% | 15% | 
O=C(c1nc(-c2c[nH]c3ncc(C4CCCCC4)cc23)cs1)N1CCCCC1 [Compound I-7, [4-(5-Cyclohexyl-1H-pyrrolo[2,3-b]pyridin-3-yl)-thiazol-2-yl]-piperidin-1-yl-methanone] | 6.46 | 6.29 | 41% | 14% | 
CN(C)C(=O)c1nc(-c2c[nH]c3ncc(C4CCCCC4)cc23)cs1 [Compound I-9, 4-[5-cyclohexyl-1H-pyrrolo[2,3-b]pyridin-3-yl]-thiazole-2-carboxylic acid dimethylamide] | 6.68 | 6.71 | 56% | 20% | 
CC1(C)C=CC(c2cnc3[nH]cc(-c4csc(C(=O)N5CCOCC5)n4)c3c2)=CC1 [Compound I-16, {4-[5-(4,4-Dimethyl-cyclohexa-1,5-dienyl)-1H-pyrrolo[2,3-b]pyridin-3-yl]-thiazol-2-yl}-morpholin-4-yl-methanone] | 6.34 | 6.18 | 56% | 32% | 
O=C(c1nc(-c2c[nH]c3ncc([C@H]4CC[C@H](N5CCOCC5)CC4)cc23)cs1)N1CCCCC1 [Compound I-33, (4-(5-((1r,4r)-4-morpholinocyclohexyl)-1H-pyrrolo[2,3-b]pyridin-3-yl)thiazol-2-yl)(piperidin-1-yl)methanone] | 6.68 | 6.68 |  |  | 

Molecules with a higher pIC50 [1], results first:

pIC50 [1] | pIC50 [4] | Compound | Percentage reduction in the level of TNFα [2] | Percentage reduction in the level of P-c-Jun [3] | Selectivity expressed as Gini coefficient [5]
6.76 | 6.72 | CC1CC=C(c2cnc3[nH]cc(-c4csc(C(=O)N5CCN(C)CC5)n4)c3c2)CC1 (centres unmarked) [Compound I-14, {4-[5-(4-Methyl-cyclohex-1-enyl)-1H-pyrrolo[2,3-b]pyridin-3-yl]-thiazol-2-yl}-(4-methyl-piperazin-1-yl)-methanone] | 64% | 12% | 
6.78 | 6.67 | O=C(c1nc(-c2c[nH]c3ncc(C4CCCCC4)cc23)cs1)N1CCOCC1 [Compound I-8, [4-(5-Cyclohexyl-1H-pyrrolo[2,3-b]pyridin-3-yl)-thiazol-2-yl]-morpholin-4-yl-methanone] | 21% | 7% | 0.493
6.93 | 6.90 | CN1CCN(C(=O)c2nc(-c3c[nH]c4ncc(C5=CCCC5)cc34)cs2)CC1 [Compound I-5, [4-(5-Cyclopent-1-enyl-1H-pyrrolo[2,3-b]pyridin-3-yl)-thiazol-2-yl]-(4-methyl-piperazin-1-yl)-methanone] | 66% | −32% | 
7.03 | 7.08 | CN1CCN(C(=O)c2nc(-c3c[nH]c4ncc(C5CCCCC5)cc34)cs2)CC1 [Compound I-10, [4-(5-Cyclohexyl-1H-pyrrolo[2,3-b]pyridin-3-yl)-thiazol-2-yl]-(4-methyl-piperazin-1-yl)-methanone] | 47% | 20% | 
